Assay results as given in paper PMC4394464, “Identification and Pharmacokinetics of Multiple Potential Bioactive Constituents after Oral Administration of Radix Astragali on Cyclophosphamide-Induced Immunosuppression in Balb/c Mice” (International Journal of Molecular Sciences, 2015).

Experiment: Profiling of absorbed constituents and metabolites in mice plasma after oral administration of RA (UFLC-DAD-Q-TOF-MS/MS)
Details: oral RA extract 6 g/kg BW; cyclophosphamide-induced immunosuppressed Balb/c mice; plasma sampled 0.25-36 h; '-' = not detected

Source: Dosed Plasma (time points at which the compound was detected): 0.25 to 8 h
Substance: Glucuronidated rhamnocitrin [Peak M4]
